# scFv variants of Ab-14 (light chain) against a SARS-CoV-2 spike peptide

Data: MIT Lincoln Laboratory AlphaSeq set, Li et al. 2023, doi:10.1038/s41467-023-39022-2, as distributed in FLAb.

Target peptide (SARS-CoV-2 spike, HR2 region): PDVDLGDISGINAS

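Phage display of a naive human antibody library on the peptide gave the parent. The variants were designed computationally from a first round of random CDR variants and then made and measured. Their group label is 14L_GP_Gibbs (GP: Gaussian process model; Gibbs: Gibbs sampling; a sequence that several methods proposed may carry one label only). Affinity was read by AlphaSeq, a pooled yeast mating assay with surface-displayed partners. Binding brings cells together so that they mate, and sequencing counts the barcode pairs among the diploids. Each replicate has its own calibration line, from reference interactions of the BCL2 family. There are six technical replicates.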

Each scFv is VH, a 15-residue (Gly4Ser)3 linker, VL, as in the parent Ab-14, and differs from it in the CDRs of the light chain only.
VH: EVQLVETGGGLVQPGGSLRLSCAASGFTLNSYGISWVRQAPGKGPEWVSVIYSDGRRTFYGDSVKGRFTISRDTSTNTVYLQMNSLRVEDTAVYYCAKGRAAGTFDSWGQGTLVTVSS
VL: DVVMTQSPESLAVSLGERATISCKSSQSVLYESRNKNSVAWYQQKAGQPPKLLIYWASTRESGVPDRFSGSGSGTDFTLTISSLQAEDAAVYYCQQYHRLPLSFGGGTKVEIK

Positions count from residue 1 of the parent VL; S25L puts L in place of S.
Values are log10 of the apparent Kd in nM; lower means stronger binding.
Replicates are averaged; those with no signal do not enter the mean.
"nd" means that the variant was in the library but no mating with the target was seen in that replicate; the authors take this as a sign of poor binding, and no number exists.

| changes | replicates, log10 nM | log10 Kd (nM), mean | empty controls |
|---|---|---|---|
| S25L S26Q V29E L30G K36Q S38A W56A T59Q S62E | 0.05 / -0.19 / -0.28 / -0.41 / -0.26 / -0.19 | -0.21 | 1 of 18 (3.09) |
| S25Q V29D L30E Y31Q R34S W56N S62Q | 0.17 / 0.14 / -0.03 / -0.04 / -0.13 / 0.30 | 0.07 | 0 of 18 |
| S25I V29W K36I S38N W56S A57C T59M | 0.79 / 0.92 / 1.19 / 0.81 / 0.85 / 0.90 | 0.91 | 1 of 18 (2.18) |
| S25L S26E L30M Y31L S38A W56S T59Q S62L | 0.18 / -0.17 / -0.18 / -0.08 / -0.23 / -0.13 | -0.10 | 0 of 18 |
| K24I S25L Q27M V29E S33D N35M W56N T59Q S62Q | 1.85 / nd / 1.60 / 3.11 / 2.54 / 1.68 | 2.16 | 1 of 18 (2.66) |
| S25L S26L Y31L E32W K36W W56N S62L | 0.85 / 0.14 / 0.30 / 0.64 / 0.35 / 0.52 | 0.47 | 2 of 18 (2.72) |
| S25L Q27M V29D Y31M K36W S38A W56H S62E | 0.23 / 0.61 / 0.35 / 0.12 / 0.31 / 0.59 | 0.37 | 0 of 18 |
| S25V Q27P V29Q E32W S38A W56Q S62T | 0.68 / 0.22 / 0.36 / 0.24 / 0.36 / 0.37 | 0.37 | 2 of 18 (2.70) |
| S25L S28Q V29M S38N W56A T59D | 0.07 / 0.12 / 0.02 / 0.02 / 0.10 / 0.06 | 0.07 | 2 of 18 (2.64) |
| S25W Y31G S33E N37M W56N A57G | 0.91 / 0.42 / 0.70 / 0.09 / 0.72 / 0.44 | 0.55 | 2 of 18 (2.62) |
| S25L S26M W56N T59Y S62Q | -0.11 / -0.09 / -0.15 / -0.18 / -0.40 / -0.14 | -0.18 | 1 of 18 (2.40) |
| S26M Q27F L30P Y31G W56E E61C | 1.10 / 1.20 / 0.63 / 0.55 / 0.41 / 0.96 | 0.81 | 0 of 18 |
| S25L S26E S28Q V29W L30E K36S S38N W56A E61S S62D | 0.02 / -0.25 / -0.22 / -0.44 / -0.35 / -0.04 | -0.21 | 1 of 18 (2.32) |
| S25F V29D L30D S33D W56S A57G T59Q E61S | 0.02 / -0.31 / -0.37 / -0.22 / -0.06 / -0.03 | -0.16 | 0 of 18 |
| V29G L30E Y31M S38N W56D T59Q | -0.26 / -0.32 / -0.69 / -0.55 / -0.50 / -0.24 | -0.43 | 1 of 18 (1.80) |
| S25L Q27P Y31G E32M S33E N35A W56N | 0.08 / -0.05 / -0.06 / 0.01 / -0.03 / -0.03 | -0.01 | 0 of 18 |
| S25M S28L V29Q S33W K36S W56N T59Y | 0.20 / 0.29 / 0.08 / 0.15 / 0.31 / 0.46 | 0.25 | 1 of 18 (3.13) |
| S25L S26Y V29E L30W N35M K36C W56N T59V | 0.32 / 0.45 / 0.24 / 0.22 / 0.57 / 0.85 | 0.44 | 0 of 18 |
| S25V S28M V29E L30P S33E S38N W56N E61M | -0.22 / -0.41 / -0.47 / -0.35 / -0.25 / -0.21 | -0.32 | 2 of 18 (3.89) |
| Y31M R34L W56H E61I S62W | 1.56 / 1.22 / 0.44 / 1.14 / 1.20 / 1.22 | 1.13 | 1 of 18 (2.29) |
| K24I S25L S26D V29Q S38A W56N S62Q | 0.16 / -0.14 / -0.22 / -0.39 / -0.40 / -0.02 | -0.17 | 0 of 18 |
| S25Y S26W V29H Y31G S38A W56N S62E | 0.24 / -0.08 / -0.02 / -0.09 / 0.13 / 0.11 | 0.05 | 0 of 18 |
| S25L S26M S28M V29P L30E K36A W56N T59Q S62E | 0.05 / -0.13 / -0.12 / -0.45 / -0.01 / 0.14 | -0.08 | 1 of 18 (1.31) |
| S25V S26L Y31Q K36S W56N S62L | -0.04 / -0.32 / -0.35 / -0.41 / -0.29 / -0.09 | -0.25 | 0 of 18 |
| Y31M R34L W56H T59Q E61I S62W | 1.21 / 1.21 / 0.79 / 1.05 / 1.27 / 1.44 | 1.16 | 0 of 18 |
| S25L Q27M S28M V29D N35M K36S W56M S62V | -0.28 / 0.61 / 0.41 / 0.30 / 0.52 / 0.40 | 0.33 | 0 of 18 |
| S25L S33M R34G N35M W56Q S58V E61M | 0.57 / 0.95 / 0.53 / 0.56 / 0.54 / 0.60 | 0.63 | 0 of 18 |
| S25L Q27M S28E V29H L30D W56Q T59Q S62E | -0.29 / -0.45 / -0.19 / -0.65 / -0.45 / -0.29 | -0.39 | 1 of 18 (2.21) |
| S25L S26Q Q27G V29H W56H T59Q E61L Q96C | nd / 1.90 / 1.63 / 1.90 / 2.00 / 1.60 | 1.80 | 1 of 18 (2.33) |
| S25M S26Q S28L L30W S33Q W56D A57G | -0.19 / -0.21 / -0.43 / -0.35 / -0.39 / -0.18 | -0.29 | 0 of 18 |
| S25I S26H Q27I V29E S33D W56S T59Q E61L S62E | 0.12 / 0.08 / -0.11 / 0.05 / -0.20 / 0.07 | 0.00 | 1 of 18 (2.36) |
| S25I E32Q S33A K36Q W56S E61M S62H | 0.87 / 0.84 / 0.70 / 0.68 / 0.71 / 0.71 | 0.75 | 3 of 18 (3.03) |
| S25F S26Q L30G E32Q S33T W56D | 0.27 / 0.13 / 0.53 / 0.00 / 0.15 / -0.01 | 0.18 | 1 of 18 (3.71) |
| S25V V29Q K36M W56N S62M S103V | 0.61 / 0.62 / 0.53 / 0.75 / 0.52 / 0.55 | 0.60 | 0 of 18 |
| S25V V29E L30E N35W W56N T59Q | -0.07 / 0.15 / 0.05 / -0.10 / 0.15 / 0.03 | 0.03 | 0 of 18 |

The opening 5 entries, copied out:

{"changes": "S25L S26Q V29E L30G K36Q S38A W56A T59Q S62E", "replicates, log10 nM": "0.05 / -0.19 / -0.28 / -0.41 / -0.26 / -0.19", "log10 Kd (nM), mean": "-0.21", "empty controls": "1 of 18 (3.09)"}
{"changes": "S25Q V29D L30E Y31Q R34S W56N S62Q", "replicates, log10 nM": "0.17 / 0.14 / -0.03 / -0.04 / -0.13 / 0.30", "log10 Kd (nM), mean": "0.07", "empty controls": "0 of 18"}
{"changes": "S25I V29W K36I S38N W56S A57C T59M", "replicates, log10 nM": "0.79 / 0.92 / 1.19 / 0.81 / 0.85 / 0.90", "log10 Kd (nM), mean": "0.91", "empty controls": "1 of 18 (2.18)"}
{"changes": "S25L S26E L30M Y31L S38A W56S T59Q S62L", "replicates, log10 nM": "0.18 / -0.17 / -0.18 / -0.08 / -0.23 / -0.13", "log10 Kd (nM), mean": "-0.10", "empty controls": "0 of 18"}
{"changes": "K24I S25L Q27M V29E S33D N35M W56N T59Q S62Q", "replicates, log10 nM": "1.85 / nd / 1.60 / 3.11 / 2.54 / 1.68", "log10 Kd (nM), mean": "2.16", "empty controls": "1 of 18 (2.66)"}

A sequence measured in both rounds can read differently, since the two assays cover different ranges.
Of ten entries with the parent sequence, four were seen in most replicates (averages 0.34 to 2.37), three in one and three in none, so single entries are noisy.
As a blank, each scFv also met three strains without target: over all light chain designs, 4% of these pairings were detected, typically at 2.64 and seldom below 1.59. Also given: how often the same scFv was detected with the empty control strains, with their mean in brackets.
In the paper, a design with two or fewer of six values counts as a poor binder.